US10059688B2, “Protein tyrosine kinase modulators and methods of use” (BETTA PHARMACEUTICALS CO., LTD., priority 2013, dated 2018)

By UniProt entry, the sequences of proteins in these tests, tags left out. Residues count along the entry.
UniProt Q9UM73, 19-1620: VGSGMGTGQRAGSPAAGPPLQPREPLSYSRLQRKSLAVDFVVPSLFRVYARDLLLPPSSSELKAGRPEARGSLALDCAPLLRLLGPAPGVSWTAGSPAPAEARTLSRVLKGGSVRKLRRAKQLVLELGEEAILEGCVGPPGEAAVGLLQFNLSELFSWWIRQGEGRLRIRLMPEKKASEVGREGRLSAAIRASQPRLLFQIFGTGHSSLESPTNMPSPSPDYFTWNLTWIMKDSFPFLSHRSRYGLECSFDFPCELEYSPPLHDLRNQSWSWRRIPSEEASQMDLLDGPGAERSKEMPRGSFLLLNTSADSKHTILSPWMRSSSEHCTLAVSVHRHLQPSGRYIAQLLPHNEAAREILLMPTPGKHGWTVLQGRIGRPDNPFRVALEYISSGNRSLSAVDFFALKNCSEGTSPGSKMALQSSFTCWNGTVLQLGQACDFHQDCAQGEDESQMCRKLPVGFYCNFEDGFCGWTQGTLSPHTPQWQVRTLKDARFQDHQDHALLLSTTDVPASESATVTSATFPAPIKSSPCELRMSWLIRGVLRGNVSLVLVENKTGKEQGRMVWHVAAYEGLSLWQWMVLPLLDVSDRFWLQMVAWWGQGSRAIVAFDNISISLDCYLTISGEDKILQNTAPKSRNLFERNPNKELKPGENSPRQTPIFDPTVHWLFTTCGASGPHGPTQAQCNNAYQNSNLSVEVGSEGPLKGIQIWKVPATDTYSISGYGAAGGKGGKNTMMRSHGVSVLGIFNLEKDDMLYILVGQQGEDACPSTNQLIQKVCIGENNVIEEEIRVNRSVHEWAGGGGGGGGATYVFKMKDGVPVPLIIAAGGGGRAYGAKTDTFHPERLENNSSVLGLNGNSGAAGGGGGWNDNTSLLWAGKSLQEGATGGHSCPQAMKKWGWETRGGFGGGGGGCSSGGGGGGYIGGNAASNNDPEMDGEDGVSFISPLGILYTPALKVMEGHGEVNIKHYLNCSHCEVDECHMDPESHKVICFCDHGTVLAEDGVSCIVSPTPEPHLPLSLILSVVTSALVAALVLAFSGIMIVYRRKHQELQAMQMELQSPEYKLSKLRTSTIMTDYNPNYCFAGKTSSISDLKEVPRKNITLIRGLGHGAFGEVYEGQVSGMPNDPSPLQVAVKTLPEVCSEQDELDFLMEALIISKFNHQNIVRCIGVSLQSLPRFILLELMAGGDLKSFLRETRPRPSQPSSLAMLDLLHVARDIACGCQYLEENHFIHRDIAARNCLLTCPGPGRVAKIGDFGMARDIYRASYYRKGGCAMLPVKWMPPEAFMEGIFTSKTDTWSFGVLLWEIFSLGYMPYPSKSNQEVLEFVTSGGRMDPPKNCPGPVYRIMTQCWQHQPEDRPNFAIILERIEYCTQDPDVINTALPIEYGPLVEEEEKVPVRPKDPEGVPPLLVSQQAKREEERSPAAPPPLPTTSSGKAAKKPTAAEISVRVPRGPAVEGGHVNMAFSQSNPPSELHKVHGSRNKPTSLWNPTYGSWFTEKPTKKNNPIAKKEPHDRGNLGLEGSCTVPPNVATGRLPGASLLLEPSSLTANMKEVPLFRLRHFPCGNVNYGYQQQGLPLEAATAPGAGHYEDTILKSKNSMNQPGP

Legend:
ALK = ALK (Homo sapiens (Human), UniProt Q9UM73); experiment: Kinase assay (IC50), fluorescence peptide assay; format: biochemical; details: 10 pt curve, 1 μM top concentration, Km ATP
EGFR (ErbB1) L858R = EGFR (ErbB1) L858R (Homo sapiens (Human), UniProt P00533, L858R); experiment: Kinase assay (IC50), fluorescence peptide assay; details: read-out: IC50 EGFR (ErbB1) L858R; 10 pt curve, 1 μM top concentration, Km ATP
EGFR (ErbB1) T790M L858R = EGFR (ErbB1) T790M L858R (Homo sapiens (Human), UniProt P00533, L858R/T790M); details: read-out: IC50 EGFR (ErbB1) T790M L858R; 10 pt curve, 1 μM top concentration, Km ATP
EGFR (ErbB1) T790M = EGFR (ErbB1) T790M (Homo sapiens (Human), UniProt P00533, T790M); experiment: Kinase assay (IC50), fluorescence peptide assay; format: biochemical; details: 10 pt curve, 1 μM top concentration, Km ATP
EGFR (ErbB1) = EGFR (ErbB1) (Homo sapiens (Human), UniProt P00533); experiment: Kinase assay (IC50), fluorescence peptide assay; format: biochemical; details: EGFR WT; 10 pt curve, 10 μM top concentration, Km ATP

Substance	IC50 (ALK)	IC50 (EGFR (ErbB1) L858R)	IC50 (EGFR (ErbB1) T790M L858R)	IC50 (EGFR (ErbB1) T790M)	IC50 (EGFR (ErbB1))
N-(5-(5-chloro-4-(2-(2-(dimethylamino)-2-oxoactyl)phenylamino)pyrimidin-2-ylamino)-2-(2-(dimethylamino)ethoxy)phenyl)acrylamide [Example 115]	0.00862 µM	–	–	–	–
N-(5-(5-chloro-4-(2-(2-(dimethylamino)-2-oxoactyl)phenylamino)pyrimidin-2-ylamino)-4-methoxy-2-(4-methylpiperazin-1-yl)phenyl)acrylamide [Example 74]	0.00933 µM	0.422 µM	0.0155 µM	0.0158 µM	0.513 µM
